Measured values: paper PMC11289455 (Scientific Reports, 2024)

Experiment: Rat pharmacokinetic and tissue distribution study, oral dosing
Conditions: male Sprague-Dawley rats, 10 mg/kg oral, n=4/timepoint, LC-MS/MS
Method: Table S2. […] Plasma, small intestine, colon, and colon contents were sampled at terminal time points. Tissues and content were homogenized in buffer (1:1 PBS:ethanol with EDTA-free protease inhibitor tablets [Roche]). All samples were analyzed using LC-MS/MS.

Which “AUClast, SI mucosa” value does the source give for `CC(=O)NCCCC[C@@H]1NC(=O)[C@H](Cc2c[nH]c3c(C)cccc23)NC(=O)[C@H]([C@@H](C)O)NC(=O)[C@H](CC(N)=O)NC(=O)[C@@H](NC(C)=O)C(C)(C)SSC(C)(C)[C@@H](C(=O)N[C@@H](Cc2ccc(OCCN)cc2)C(=O)N[C@@H](Cc2ccc3ccccc3c2)C(=O)NC2(C(=O)N[C@@H](CCC(=O)O)C(=O)N[C@@H](CC(N)=O)C(=O)N[C@@H](Cc3cccnc3)C(=O)N(C)CC(N)=O)CCOCC2)NC1=O` [JNJ-77242113, S^3,1,S^3,6-cyclo[N-acetyl-3-sulfanyl-L-valyl-L-asparaginyl-L-threonyl-7-methyl-L-tryptophyl-N^6-acetyl-L-lysyl-3-sulfanyl-L-valyl-O-(2-aminoethyl)-L-tyrosyl-3-(naphthalen-2-yl)-L-alanyl-4-aminooxan-4-carbonyl-L-α-glutamyl-L-asparaginyl-3-(pyridin-3-yl)-L-alanyl-N^2-methylglycinamide]] here?
Its value is 27,100 ng·hr/g.

What about the “AUClast, SI mucus” value of the same molecule?
The value was 105,000 ng·hr/g.

What about the “Cmax, SI mucosa” value of the same molecule?
The value was 12,800 ng/g.

What about the “Cmax, SI mucus” value of the same molecule?
The value was 58,500 ng/g.

What about the “Tmax, SI mucosa” value of the same molecule?
The value was 1 h.

What about the “Tmax, SI mucus” value of the same molecule?
Its value is 1 h.

And the “AUClast, SI (small intestines)” value (tissue homogenate)?
The value was 4,950 ng·hr/g.

And the “Cmax, SI (small intestines)” value (tissue homogenate)?
Its value is 2,090 ng/g.

What about the “Tmax, SI (small intestines)” value (tissue homogenate) of the same molecule?
Its value is 1 h.
